{"source": "patent US11396548B2", "about": "“EGFR targeted therapy of neurological disorders and pain” (Sykehuset Sørlandet HF, priority 2012, dated 2022)", "key": {"[1]": {"system": "patients with neuropathic pain", "experiment": "Case reports: relief of neuropathic pain by EGFR inhibitors (0-10 NRS / Brief Pain Inventory)", "type": "in vivo, human", "details": "for NP relief (summary of the cases): conditions where proximal and/or distal parts of peripheral nerves were affected", "description": "The term “in vivo” refers to the natural environment (e.g., an animal or a cell) and to processes or reaction that occur within a natural environment. […] Pain interference is assessed using the Brief Pain Inventory (BPI). BPI is used to evaluate pain interference with the following: (a) general activity, (b) mood, (c) walking ability, (d) normal work, (e) relations with other people, (f) sleep, and (g) enjoyment of life. Total score for pain interference is calculated as: (Mean score of non-missing questions)×(7/number of non-missing questions). If four or more questions are missing, the pain interference total score is set to missing.\nIn some cases, the patients were asked to complete a BPI short form daily, just before and during the EGFR inhibition, in order to document their neuropathic pain and thus, help us to judge their responses and guide treatment decisions."}, "[2]": {"experiment": "Case reports: concomitant analgesic / opioid requirement during EGFR inhibition", "type": "in vivo, human"}, "[3]": {"experiment": "Case reports: performance status, function, quality of life and accompanying symptoms", "type": "in vivo, human", "details": "Case 2"}, "[4]": {"system": "pelvic tumor (recurrent rectal cancer)", "experiment": "MRI of pelvic tumor during cetuximab treatment (case 1)", "type": "in vivo, human", "excerpt": "FIGS. 1a-d describe graphically the clinical course of case 1 over period of 69 months. Progression of the pelvic tumor in case 1 during this period is shown in the magnetic resonance image (MRI) in FIG. 2a-c.\nFIGS. 2a-c. Recurrent and progressive rectal cancer. Arrows indicate tumor changes affecting the left sacral plexus and left sciatic nerve. 2a. […] There is a presacral recurrence that extends along the left sciatic nerve. 2b. […] Both the presacral recurrence and its extension along the sciatic nerve have increased in size. […] There is further progression of the recurrence in the presacral area and along the left sciatic nerve."}, "tumor cell": {"system": "tumor cell", "details": "cited from earlier work"}, "human tumor": {"system": "human tumor", "details": "nude mice; cited from earlier work"}, "[5]": {"experiment": "Case reports: side effects of EGFR inhibitors", "type": "in vivo, human"}, "[6]": {"details": "Case 1, 450 mg, 12-day cycles, 2-4 months"}, "[7]": {"details": "Case 2, yrs, complex regional pain syndrome type 1 of the right hand, sequence cetuximab, panitumumab, cetuximab, gefitinib, erlotinib"}, "[8]": {"details": "Case 3, yrs, radiculopathy due to failed back surgery syndrome, two weekly cetuximab infusions, then gefitinib tablets, then panitumumab"}, "[9]": {"details": "Case 4, yrs, bladder cancer recurrence invading sacral nerve roots, cetuximab (effect within hours) then oral gefitinib"}}, "note": "Entries after “also recorded” stand apart in the source; their conditions may differ.", "data": [{"molecule": "cetuximab", "values": [{"measurement": "Result of treatment: duration of less pain", "setting": "[1]; Case 1, 450 mg first infusion and 350 mg third infusion", "result": "cetuximab infusion, lasting 2 weeks"}, {"measurement": "Result of treatment: time to less pain after cetuximab infusion", "setting": "[1]; Case 1, 450 mg first infusion and 350 mg third infusion (time 0, 4 weeks)", "result": "Less pain within 4 hours of"}, {"measurement": "Result of treatment: duration of less pain", "setting": "[1]; [6]", "result": "lasting 10-14 days"}, {"measurement": "Result of treatment: time to less pain after cetuximab infusion", "setting": "[1]; [6]", "result": "within 4 hours"}, {"measurement": "Analgesic effect at reduced dose", "setting": "[1]; Case 1, 20% of the normal cetuximab dose, patient unaware", "result": "no analgesic effect"}, {"measurement": "Neuropathic pelvic pain response", "setting": "[1]; Case 1, cetuximab in combination with XELOX (capecitabine and oxaliplatin)", "result": "completely gone; also recorded: completely, or nearly completely, disappeared within four to five hours"}, {"measurement": "Neuropathic pain response", "setting": "[1]; Case 1, cetuximab monotherapy 450 mg i.v./250 mg per m^2, roughly every 12 days, 20 months, cancer in progression", "result": "improved dramatically; also recorded: continued to be best controlled with cetuximab; also recorded: continued to have the dramatic analgesic effect"}, {"measurement": "Clinical picture", "setting": "[1]; Case 1, cetuximab monotherapy 550 mg, 5-8 months, within hours, especially on peak pain", "result": "positive effect"}, {"measurement": "Duration of effective analgesia", "setting": "[1]; Case 1, cetuximab monotherapy at previously effective dose", "result": "under 2 weeks"}, {"measurement": "Time to effective analgesia after infusion", "setting": "[1]; Case 1, cetuximab monotherapy at previously effective dose, approximately every 12 days", "result": "4 to 5", "unit": "h"}, {"measurement": "Clinical picture", "setting": "[1]; Case 1, cetuximab monotherapy, 4 weeks to 2-4 months", "result": "Significantly less pain. Pain recurrence during"}, {"measurement": "Result of treatment (effect of increased dose on analgesic response)", "setting": "[1]; Case 1, increased dose 550 mg, 5-8 months", "result": "did not prolong"}, {"measurement": "Pain on movement", "setting": "[1]; Case 1, just hours after last cetuximab infusion, after 20 months of monotherapy", "result": "from nine to two"}, {"measurement": "Pain at rest", "setting": "[1]; Case 1, just hours after last cetuximab infusion, after 20 months of monotherapy, no increase in analgesics", "result": "from five to two"}, {"measurement": "Result of treatment (analgesic effect)", "setting": "[1]; Case 1, lower dose 150 mg at 6 weeks to assess dose-response and placebo effect", "result": "No resultant"}, {"measurement": "Time to complete pain relief after first dose", "setting": "[1]; Case 2, CRPS1, weekly cetuximab infusions", "result": "≤ 24", "unit": "h"}, {"measurement": "Neuropathic pain response", "setting": "[1]; [7]", "result": "complete pain relief which persisted until the next infusion; also recorded: therapeutically successful; also recorded: relieved their NP"}, {"measurement": "Neuropathic pain response", "setting": "[1]; [8]", "result": "reduced significantly and in the following days, the NP disappeared completely; also recorded: After an eleven-day cetuximab wash-out, his NP began to relapse"}, {"measurement": "Neuropathic pain response", "setting": "[1]; [9]", "result": "complete relief of their NP"}, {"measurement": "Time to pain recurrence after the last cetuximab infusion", "setting": "[1]; cases 1 and 3", "result": "11 to 14", "unit": "days"}, {"measurement": "NP relief (summary of the cases)", "setting": "[1]", "result": "led to complete NP relief"}, {"measurement": "Pain reduction", "setting": "[1]; general statement, 4-6 h after intravenous administration", "result": "about 90%"}, {"measurement": "24-hour morphine requirement, depot", "setting": "[2]; Case 1, 2-4 months, just after infusion", "result": "Depot: 90 mg"}, {"measurement": "24-hour morphine requirement, depot", "setting": "[2]; Case 1, 2-4 months, just before next dose", "result": "infusion, 180 mg"}, {"measurement": "24-hour morphine requirement, immediate release", "setting": "[2]; Case 1, 4 weeks, 120-180 mg at time 0", "result": "none"}, {"measurement": "24-hour morphine requirement, depot", "setting": "[2]; Case 1, 5-8 months, just after infusion", "result": "Depot: 290 mg"}, {"measurement": "24-hour morphine requirement, depot", "setting": "[2]; Case 1, 5-8 months, just before next dose", "result": "to 480 mg just"}, {"measurement": "24-hour morphine requirement, immediate release", "setting": "[2]; Case 1, 6 weeks to 5-8 months", "result": "Immediate release: none except"}, {"measurement": "24-hour morphine requirement", "setting": "[2]; Case 1, 6 weeks, after lower cetuximab dose 150 mg", "result": "Increased"}, {"measurement": "Opiate use", "setting": "[2]; Case 1, XELOX and cetuximab, after two treatments, 200 mg dolcontin per 24 hours at outset", "result": "practically stopped all opiate use"}, {"measurement": "Opioid dose immediately following cetuximab infusion, as fraction of the end-of-cycle dose", "setting": "[2]; Case 1, cetuximab monotherapy", "result": "approximately ⅓"}, {"measurement": "24-hour morphine requirement, depot", "setting": "[2]; Case 1, cetuximab monotherapy, 4 weeks, 290 mg at time 0", "result": 150, "unit": "mg"}, {"measurement": "Depot opioid dose", "setting": "[2]; Case 1, within four weeks after first cetuximab monotherapy infusion, 320 mg/24 hours before", "result": "cut their depot opioid dose in half"}, {"measurement": "Reduction of opioid and gabapentin doses", "setting": "[2]; Case 4, three days after first cetuximab treatment, 24-hour morphine-equivalent dose 1800 mg before", "result": 50, "unit": "%"}, {"measurement": "Effect on vasomotor pathology / symptoms of CRPS1", "setting": "[3]", "result": "did not influence"}, {"measurement": "Pelvic lesion on MRI", "setting": "[4]; eight months after starting cetuximab monotherapy", "result": "an increase in the offending lesion"}, {"measurement": "Pelvic tumor size on MRI", "setting": "[4]; four months after starting XELOX and cetuximab", "result": "no change"}, {"measurement": "EGF-mediated tumor cell growth in vitro", "setting": "tumor cell", "result": "inhibit EGF-mediated tumor cell growth in vitro"}, {"measurement": "Human tumor formation in vivo", "setting": "human tumor", "result": "inhibit human tumor formation in vivo in nude mice"}]}, {"molecule": "COc1cc2ncnc(Nc3ccc(F)c(Cl)c3)c2cc1OCCCN1CCOCC1", "note": "[gefitinib]", "values": [{"measurement": "Neuropathic pain response", "setting": "[1]; [7]", "result": "continued to be completely relieved"}, {"measurement": "Neuropathic pain response", "setting": "[1]; [8]", "result": "continued to increase for the first two days of oral treatment; also recorded: gradually improved to levels as good as those they had experienced with cetuximab; also recorded: completely alleviated after two to three weeks of treatment"}, {"measurement": "Neuropathic pain response", "setting": "[1]; Case 3, yrs, radiculopathy due to failed back surgery syndrome, two weekly cetuximab infusions, then gefitinib tablets, then panitumumab, listed as Gefitinib", "result": "NP recurred after three days"}, {"measurement": "Time to analgesic response", "setting": "[1]; Case 3, oral gefitinib after cetuximab washout", "result": "one week"}, {"measurement": "Pain score after three weeks of gefitinib", "setting": "[1]; Case 3, oral gefitinib after complete cetuximab washout with pain recurrence", "result": "0 /10"}, {"measurement": "Neuropathic pain response", "setting": "[1]; [9]", "result": "Complete relief from NP was maintained through and beyond this transition; also recorded: completely relieved by gefitinib for 277 days of follow-up"}, {"measurement": "NP relief (summary of the cases)", "setting": "[1]", "result": "led to complete NP relief"}, {"measurement": "Side effect", "setting": "[5]; Case 2, nineteen weeks after first gefitinib dose", "result": "elevated liver transaminases"}, {"measurement": "Side effect", "setting": "[5]; Case 3, one month after starting gefitinib", "result": "pneumonia"}, {"measurement": "Side effect", "setting": "[5]; Case 3, one month after starting gefitinib, listed as Gefitinib", "result": "interstitial lung disease (ILD) could not be excluded"}]}]}
